Laboratory results as given in ChEMBL document CHEMBL5579834 (Eur J Med Chem, 2024).

Experiment: Stability of the compound in whole blood (unknown origin) assessed as fold reduction in relative peak area measured within 2 hrs by chromatographic/mass spectrometric analysis

In the case of `CN1CCN(CCCC(=O)O[C@H]2C(C)(C)[C@H]3CC[C@]2(C)C3)CC1`, the fold change (FC) is reported as 2.
